Values of other authors as cited in patent US9399044B2, “Antimicrobial cationic polyamines” (International Business Machines Corporation, priority 2014, dated 2016).

Tested on: mouse
Conditions: commercially available compounds, source NIH

SMILES: COc1cccc2c1C(=O)c1c(O)c3c(c(O)c1C2=O)C[C@@](O)(C(=O)CO)C[C@@H]3O[C@H]1C[C@H](N)[C@H](O)[C@H](C)O1 [Doxorubicin]
- Mouse Intravenous LD50: 10 mg/kg
